According to the CATMoS acute toxicity set (Mansouri et al. 2021):

Test: rat acute oral toxicity
Settings: in vivo

## CCCCCCO
  LD50: 3210 mg/kg

## CC12CCC(CC1)C(C)(C)O2
  LD50: 2480 mg/kg
